Results from patent US20240216444A1, “DESIGNED BACTERIAL COMPOSITIONS” (Seres Therapeutics, Inc., priority 2015, published 2024).

System: bile salt hydrolase (BSH) activity on conjugated bile acids
Assay: LC-MS screen for bile salt hydrolase (BSH) activity

## Clostridium glycolicum
  BSH activity on gCDCA by LC-MS: does retain BSH activity
